# Source: PubChem BioAssay (several laboratories)
# eIF4H inh: inhibitors of RNA binding by human eIF4H; Q15056; eIF4H fluorescence polarization binding assay; inhibition, % at 35 µM; 0.94% of 290,000 active;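 also: calls also rest on retests at 20 µM and on dose response follow-up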
# PABP polyA inh: blocks human PABP binding to poly(A) RNA. P11940. fluorescence polarization. calls only at 35 µM. 1% of 290,000 active. AID 2014;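 also: calls also rest on retests at 20 µM and on dose response follow-up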
# Yeast UUG start: modulators of start codon recognition fidelity in yeast; S. cerevisiae UUG-firefly luciferase reporter, luminescence/redox ratio; activity score, % at 18.7 µM; hit rate 0.13% among 350,000; AID 602363;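 active = replicate mean at a twofold rise or more, about +100% in these data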;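 note: firefly luciferase made from a UUG start codon reports start codon fidelity; reporter light over untreated wells divided by growth signal over untreated wells; some hits fall short of that in this replicate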
# DSG3 Ab inh: human desmoglein-3 autoantibody binding inhibition. P32926. DSG3-coupled beads, scFv-anti-DSG3-GFP binding, flow cytometry; active compounds read low. binding (percent of control), % at 10 µM. 0.48% of 310,000 active. AID 588358;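 active = binding more than 3 SD below its plate's average and above zero; inconclusive = below that plate limit but binding exactly zero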;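 also: hits lower antibody fragment binding to DSG3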
# PABP1 MLLE inh: blocks PAM2 peptide binding to the PABP1 MLLE domain; P11940; GST-MLLE / FITC-PAM2 fluorescence polarization; inhibition, % at 20 µM; 0.36% of 360,000 active; AID 588489; in the data active = inhibition above about 35%, passing the limit was not always enough
# A number is an active result; . = inactive; ? = inconclusive; / = no result; + = active, no number. Rows were chosen to be rich in hits. Some 1.5% of all compounds tested hit in one or more screens of this group. Unless noted, no rule for the calls is given here.
SMILES,eIF4H inh,PABP polyA inh,Yeast UUG start,DSG3 Ab inh,PABP1 MLLE inh
Cc1cc(C)cc(N2C(=O)CS(=O)(=O)C2c2cccc([N+](=O)[O-])c2)c1 (configuration not stated),/,/,.,/,/
Cc1ccsc1C(=O)NNC(=O)COc1ccccc1Cl,/,/,.,-0.8,.
COC(=O)c1ccc(NC(=S)NC(=O)C2CCC2)cc1,.,.,.,/,.
COC(=O)c1ccc(NC(=S)NC2CCCCC2C)cc1 (configuration not stated),active,+,/,.,.
C[C@H](CO)N1C[C@H](C)[C@H](CN(C)CC2CCCCC2)Oc2ccc(NC(=O)Cn3cnnn3)cc2CC1=O,/,/,.,/,/
CCCCNC(=O)CC1S/C(=N/N=C/c2ccc(OC)cc2)NC1=O (configuration not stated),10,.,/,.,.
COc1ccc(/C=N/N=C2/NC(=O)C(CC(=O)NC(N)=O)S2)cc1 (configuration not stated),.,.,.,.,.
O=C(C[C@H]1CC[C@H](NS(=O)(=O)c2ccccc2)[C@H](CO)O1)N1CCc2ccccc2C1,/,/,.,/,/
CN(C)S(=O)(=O)N1CCN(S(=O)(=O)c2ccc3ccccc3c2)CC1,.,.,.,73,.
CN1CCN(S(=O)(=O)c2ccc3ccccc3c2)CC1,.,.,.,.,.
C[C@@]12C(=O)N(Cc3ccc(Cl)cc3)CC(=O)N1[C@H]1c3ccccc3OC[C@@H]1[C@@H]2c1ccccc1,/,/,.,.,.
COc1ccc(CN2CC(=O)N3[C@H]4c5ccccc5OC[C@@H]4[C@H](c4ccccc4)[C@]3(C)C2=O)cc1,/,/,.,.,43
CNC(=O)C[C@@H]1CC[C@@H]2[C@H](COc3ccc(NC(=O)c4cnccn4)cc3C(=O)N2C)O1,/,/,.,/,/
O=C(Nc1cc(Cl)ccc1Cl)c1ccc(OC(=O)c2ccco2)cc1,.,.,.,65,.
Cc1ccc(NC(=O)c2ccc(OC(=O)c3ccco3)cc2)cc1,.,.,.,.,.
C[C@H](CO)N1C[C@H](C)[C@@H](CN(C)Cc2ccc(Oc3ccccc3)cc2)Oc2c(NC(=O)Nc3ccc(C(F)(F)F)cc3)cccc2C1=O,/,/,.,/,/
Cc1c(C=O)c2ccccn2c1C(=O)c1ccccc1Cl,.,.,.,.,.
Cc1c(C=O)c2ccccn2c1C(=O)c1cccs1,94,+,/,.,.
CSc1ccc(C2C(C#N)=C(N)Oc3c2ccc(=O)c2c(C)oc(C)c32)cc1 (configuration not stated),52,+,.,.,.
C[C@H](CO)N1C[C@H](C)[C@H](CN(C)C)Oc2ccc(NS(=O)(=O)c3ccc(Cl)cc3)cc2C1=O,/,/,.,/,/
Cc1ccc(S(=O)(=O)N(C)C[C@@H]2OCCCC[C@@H](C)Oc3ccc(NC(=O)CCCN(C)C)cc3C(=O)N([C@@H](C)CO)C[C@H]2C)cc1,/,/,.,/,/
CCCn1c(/C=C/c2ccco2)nc2ccccc21,.,.,/,.,.
CCCCn1c(/C=C/c2ccco2)nc2ccccc21,52,+,.,.,.
CC(C)(C)c1ccc(C(=O)Nc2ccc(S(N)(=O)=O)cc2)cc1,62,+,.,.,.
CC(=O)c1ccc(NC(=S)NCCc2ccc(S(N)(=O)=O)cc2)cc1,.,.,.,.,40
SMILES,eIF4H inh,PABP polyA inh,Yeast UUG start,DSG3 Ab inh,PABP1 MLLE inh
NS(=O)(=O)c1ccc(NC(=O)c2ccc(-c3ccccc3)cc2)cc1,.,.,/,/,.
CC(C)NC(=O)N(C)C[C@@H]1Oc2ccc(NC(=O)c3ccncc3)cc2CC(=O)N([C@@H](C)CO)C[C@H]1C,/,/,.,/,/
Cc1noc(C)c1NC(=O)N(C)C[C@H]1Oc2c(NS(=O)(=O)c3ccc(Cl)cc3)cccc2C(=O)N([C@H](C)CO)C[C@H]1C,/,/,.,/,/
Cc1cc2ccccc2n1CCNC(=O)c1ccccc1,.,.,/,?,.
O=C(NCc1ccco1)c1ccc(S(=O)(=O)N2CCOCC2)cc1,79,+,.,?,.
Cc1cc2ccccc2n1CCNC(=O)c1ccc(Br)o1,59,+,.,.,43
CCC(=O)NCCn1c(C)cc2ccccc21,106,+,.,.,.
Cc1cc2ccccc2n1CCNC(=O)COc1ccccc1,.,+,.,65,.
C[C@@H]1CN([C@@H](C)CO)C(=O)c2cc(NS(=O)(=O)c3ccc(Cl)cc3)ccc2O[C@@H]1CN(C)S(C)(=O)=O,/,/,.,/,/
Cc1cc2ccccc2n1CCNC(=O)c1ccc(S(=O)(=O)N2CCOCC2)cc1,.,.,.,83,.
CC(=O)NCCn1c(C)cc2ccccc21,94,+,.,.,.
O=C(NCCCN1CCOCC1)c1ccc(S(=O)(=O)N2CCOCC2)cc1,.,.,.,.,.
C[C@H]1CN([C@@H](C)CO)C(=O)c2cc(NC(=O)CCCN(C)C)ccc2O[C@@H]1CN(C)S(=O)(=O)c1cccs1,/,/,.,/,/
O=C(CSc1ccc(Cl)cc1)c1ccco1,87,+,/,.,.
Cc1ccc(S(=O)(=O)N(C)C[C@@H]2Oc3ccc(NC(=O)Nc4ccccc4)cc3C(=O)N([C@@H](C)CO)C[C@H]2C)cc1,/,/,.,/,/
N#C/C(=C\c1ccc(N2CCOCC2)cc1)c1ccccc1,.,.,.,-133,.
O=C(N/N=C/c1ccc(OC(=O)c2ccco2)cc1)c1ccncc1,.,.,.,.,.
Cc1cc(C)cc(C(=O)N/N=C/c2ccoc2)c1,.,.,.,.,.
O=C(N/N=C/c1ccc(OC(=O)c2ccc(Br)cc2)cc1)c1ccncc1,79,.,/,/,.
CCOc1cc(/C=N\NC(=O)c2ccc(C)nc2)ccc1OC(=O)c1ccc(F)cc1,.,.,.,66,.
COc1ccc(C(=O)Oc2ccc(/C=N/NC(=O)c3ccccc3OC)cc2[N+](=O)[O-])cc1,.,.,.,-5.1,.
COc1ccc(C(=O)N/N=C/c2ccc(OC(=O)c3cccc4ccccc34)c([N+](=O)[O-])c2)cc1,.,.,/,.,.
O=C(N/N=C/c1ccoc1)c1cc(O)cc(O)c1,96,+,.,.,.
Cc1noc(C)c1NC(=O)Nc1ccc2c(c1)C(=O)N([C@H](C)CO)C[C@H](C)[C@H](CN(C)S(=O)(=O)c1cn(C)cn1)OCCCC[C@H](C)O2,/,/,.,/,/
COc1cc(/C=N/NC(=O)c2cc(O)cc(O)c2)ccc1OC(=O)c1ccccc1,81,+,.,.,.
SMILES,eIF4H inh,PABP polyA inh,Yeast UUG start,DSG3 Ab inh,PABP1 MLLE inh
O=C(N/N=C/c1ccc(OC(=O)c2ccccc2Cl)cc1)c1cc(O)cc(O)c1,92,+,.,.,.
O=C(N/N=C/c1ccc(OC(=O)c2ccccc2Cl)cc1)c1ccccn1,.,.,.,.,.
C/C=C/c1ccc([C@H]2[C@@H](CO)N(C(=O)CC)[C@H]2CNC(=O)c2ccncc2)cc1,/,/,.,/,/
COc1ccc(S(=O)(=O)Nc2ccc3c(c2)C(=O)N([C@@H](C)CO)C[C@@H](C)[C@H](CN(C)Cc2ccccc2)O3)cc1,/,/,.,/,/
CC(NS(=O)(=O)c1ccc2c(c1)oc(=O)n2C)c1ccccc1 (configuration not stated),.,+,.,.,.
CCC1CCCCN1CCCNS(=O)(=O)c1ccc2c(c1)oc(=O)n2C (configuration not stated),.,+,.,.,.
